{"source": "patent US12100485B2", "about": "“Machine learning and molecular simulation based methods for enhancing binding and activity prediction” (The Board of Trustees of the Leland Stanford Junior …, priority 2018, dated 2024)", "origin": "cited, not measured here", "system": "μOR", "conditions": "known pharmacology, training dataset", "data": [{"compound": "CN(C)[C@]1(c2ccccc2)CC[C@]2(CC1)OCCc1c3cc(F)ccc3[nH]c12", "values": [{"measurement": "Action", "value": "agonist"}]}]}
